Consider one compound from USRE36397E, “Inhibitors of poly(ADP-ribose) synthetase and use thereof to treat NMDA neurotoxicity” (The John Hopkins University, priority 1998, dated 1999).

By UniProt entry, the sequences of proteins in these tests, tags left out.
UniProt P27008, whole entry: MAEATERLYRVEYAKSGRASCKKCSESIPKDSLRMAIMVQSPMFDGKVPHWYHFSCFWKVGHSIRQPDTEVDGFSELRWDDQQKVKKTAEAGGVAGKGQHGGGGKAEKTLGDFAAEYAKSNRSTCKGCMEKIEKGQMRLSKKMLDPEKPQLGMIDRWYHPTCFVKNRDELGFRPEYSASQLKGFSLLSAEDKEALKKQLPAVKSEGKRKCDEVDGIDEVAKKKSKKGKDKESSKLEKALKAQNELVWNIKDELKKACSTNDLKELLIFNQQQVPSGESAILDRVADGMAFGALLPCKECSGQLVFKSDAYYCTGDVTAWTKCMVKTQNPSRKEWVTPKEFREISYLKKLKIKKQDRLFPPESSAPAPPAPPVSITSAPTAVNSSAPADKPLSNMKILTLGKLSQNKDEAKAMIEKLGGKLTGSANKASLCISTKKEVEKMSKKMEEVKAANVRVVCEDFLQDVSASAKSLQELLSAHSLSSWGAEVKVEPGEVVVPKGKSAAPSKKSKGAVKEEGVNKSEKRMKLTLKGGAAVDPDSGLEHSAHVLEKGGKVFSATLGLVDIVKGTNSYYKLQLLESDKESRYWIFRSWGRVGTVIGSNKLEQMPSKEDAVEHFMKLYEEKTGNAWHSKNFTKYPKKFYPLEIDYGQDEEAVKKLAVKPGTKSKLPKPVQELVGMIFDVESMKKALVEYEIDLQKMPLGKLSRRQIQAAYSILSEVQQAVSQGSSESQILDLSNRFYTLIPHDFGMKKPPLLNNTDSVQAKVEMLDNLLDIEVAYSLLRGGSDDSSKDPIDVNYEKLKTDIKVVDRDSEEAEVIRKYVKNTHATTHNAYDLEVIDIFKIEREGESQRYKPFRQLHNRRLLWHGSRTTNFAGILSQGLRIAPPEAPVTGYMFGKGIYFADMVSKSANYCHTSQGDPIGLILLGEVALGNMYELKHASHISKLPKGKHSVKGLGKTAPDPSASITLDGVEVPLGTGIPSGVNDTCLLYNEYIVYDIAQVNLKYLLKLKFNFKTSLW

The subject of one experiment is brain NOS. In words: Nitrite formation in human kidney 293 cells stably transfected with brain NOS cDNA. The class given is cell-based. The settings on record: for effect on NOS / stimulated nitrite levels: 100 μM. As for the experimental part:
To ascertain whether NO itself elicits neurotoxicity by activation of PARS, we administered the NO releasers SNP and S-nitroso-N-acetylpenicillamine (SNAP). Benzamide (100 μM) reduced SNP and SNAP neurotoxicity by 45% to 50% (FIG. 2). […] In human kidney 293 cells stably transfected with the cDNA of brain. NOS, stimulated levels of nitrite, an indirect measure of NO production, were not affected by 100 μM benzamide, but were abolished by nitroarginic.

Another experiment concerns PARS. The settings on record: family of benzamide and its derivatives, relative to benzamide; cited from earlier work.
Experiment [1] concerns the target PARS (poly(ADP-ribose) synthetase) (Rattus norvegicus, UniProt P27008). In words: PARS activity in rat brain nuclear extracts. Format: biochemical. The settings on record: benzamide 100 μM. The source says:
Inhibitors of poly(ADP-ribose) synthetase are compounds which compete for the substrate binding site of poly(ADP-ribose) synthetase or other sites on the enzyme, and include both reversible and irreversible inhibitors. The present invention contemplates the use of any physiologically acceptable inhibitor which inhibits poly(ADP-ribose) synthetase activity. The effectiveness of a compound, and its relative potency as a poly(ADP-ribose) synthetase inhibitor, can be tested and routinely determined by measuring inhibition of poly(ADP-ribose) synthetase activity. Poly(ADP-ribose) synthetase activity can be assayed according to the method of Schranfstatter, et al., J. Clin. Inves. 77, 1312 (1986).
Whole brains from 1-day old rats were homogenized in 20% (w/v) buffer A [50 mM Tris-HCl (pH 7.4), 1 mM EDTA, 1 mM DTT, 50 mM NaCl, 0.25M sucrose, 0.2 mM phenylmethylsulfonyl fluoride, 1 μg/ml each of chymostatin, leupeptin, pepstatin and trypsin inhibitor]. The homogenate was centrifuged at 1000 g for 15 min. The pellet was washed with buffer A and centrifuged again. The washed pellet, termed nuclear fraction, was resuspended in buffer A. PARS activity was assayed according to I. U. Schranfstatter, et al., J. Clin. Inves. 77, 1312 (1986). Each 50 μl assay mixture contained 10 μg of the nuclear protein fraction and [adenylate-^32 P]

Consider `NC(=O)c1ccccc1` [benzamide], for which the figures for the “effect on NOS / stimulated nitrite levels” value with brain NOS and in the experiment with brain NOS (listed as Benzamide) were “not affected” and “does not inhibit NOS”, respectively. In the experiment with brain NOS (A23187 (10 μM), 2 hr, inhibitors 100 μM, n=3), this compound came in with a nitrite formation of 15.9±3.8 μM nitrite. Also, in the experiment with PARS, the “relative potency as PARS inhibitor (in words)” value is “most active”. The “inhibition of poly(ADP-ribose) synthesis stimulated by SIN-1- or SNP-treated DNA” value in experiment [1] is recorded as “inhibited”.
